Source: patent US20210284690A1 (SWEDISH ORPHAN BIOVITRUM AB PUBL, published 2021)

Target: IL-1β
Assay: cell-based or functional assay

NHDF IC50 (pM); inhibition of IL-1β induced IL-6 release from NHDF cells: 400 pM
B1: PSI0541, IL1RA-G4SG4SG4S-[half-life extending polypeptide moiety]-GS-IL1RA (ligand)
chain: RPSGRKSSKMQAFRIWDVNQKTFYLRNNQLVAGYLQGPNVNLEEKIDVVPIEPHALFLGIHGGKMCLSCVKSGDETRLQLEAVNITDLSENRKQDKRFAFIRSDSGPTTSFESAACPGWFLCTAMEADQPVSLTNMPDEGVMVTKFYFQEDEGGGGSGGGGSGGGGSPVPPTGDSEATPVPPTGDSETAPVPPTGDSGAPPVPPTGDSGAPPVPPTGDSGAPPVPPTGDSGAPPVPPTGDSGAPPVPPTGDSGAPPVPPTGDSGAPPVPPTGDSGAPPVPPTGDAGPPPVPPTGDSGAPPVPPTGDSGAPPVTPTGDSETAPVPPTGDSGAPPVPPTGDSEAAPVPPTDDSKEAGSRPSGRKSSKMQAFRIWDVNQKTFYLRNNQLVAGYLQGPNVNLEEKIDVVPIEPHALFLGIHGGKMCLSCVKSGDETRLQLEAVNITDLSENRKQDKRFAFIRSDSGPTTSFESAACPGWFLCTAMEADQPVSLTNMPDEGVMVTKFYFQEDE
